Here are results for 2 substances from patent publication US20160228567A1, “Hypoxia-Targeted Delivery System for Pharmaceutical Agents” (NORTHEASTERN UNIVERSITY, priority 2013, published 2016).

The test system of this data set is B16F10 tumors. To be noted: mouse, in vivo, iv.

PEG-Rhodamine-PEI-DOPE [PRPD]: the “accumulation in tumors (tumor sections)” value was “not found to accumulate in tumors”. Consider PEG-Azo-Rhodamine-PEI-DOPE [PARPD], for which the “accumulation in tumors (tumor sections)” value is recorded as “detected in tumor sections”.
